Reference: patent US10906905B2, “Five-membered heteroaryl ring bridged ring derivative, preparation method therefor and medical use thereof” (Jiangsu Hengrui Medicine Co., Ltd., priority 2016, dated 2021)

Tests used:
[1] = tested on: Smad signaling pathway of TGFβRI; experiment: Inhibition of Smad signaling pathway of TGFβRI (3TP-lux luciferase reporter in HepG2 cell); details: read-out: IC50 on the inhibition of Smad signaling pathway of TGFβRI, 3TP-lux plasmid, 18 hours
NIH3T3 cell = experiment: Inhibition of NIH3T3 cell proliferation (CellTiter-Glo); assay type: cell-based; details: read-out: IC50 on the inhibition of NIH3T3 cell proliferation, 72 hours, 0.5% FBS
[2] = Pharmacokinetics assay in rats after intragastrical administration; details: SD rats, 2 mg/kg

| IC50 [1] | Compound | IC50 (NIH3T3 cell) | further results |
| --- | --- | --- | --- |
| 38 nM | Cc1cccc(-c2nc3n(c2-c2ccnc(-c4ccc(C(=O)NC5CCOCC5)cc4)c2)C2CCC3C2)n1 (single isomer, unassigned) [The compound with retention time of 9.196 minutes among 17-1] | – | – |
| 56 nM | Cc1cccc(-c2nn3c(c2-c2ccnc4ccc(C(N)=O)cc24)C2CCC3C2)n1 (single isomer, unassigned) [The compound with retention time of 7.153 minutes among 35-1] | – | – |
| 9 nM | Cc1cccc(-c2nc3n(c2-c2ccnc(-c4cnn(C)c4)c2)C2CCC3C2)n1 (single isomer, unassigned) [The compound with retention time of 2.955 minutes among 12-1] | – | IC50 (NIH3T3 cell; listed as The compound with retention time is 2.955 minutes among 12-1 and 12-2): 37 nM |
| 87 nM | Cc1cccc(-c2nn3c(c2-c2ccnc4ccc(C(N)=O)cc24)C2CCC3C2)n1 (single isomer, unassigned) [The compound with retention time of 7.992 minutes among 35-1] | – | – |
| 27 nM | Cc1cccc(-c2nc3n(c2-c2ccnc(-c4ccc(C(N)=O)cc4)c2)C2CCC3C2)n1 (single isomer, unassigned) [The compound with retention time of 4.058 minutes among 4-1 ] | 39 nM | – |
| 29 nM | NC(=O)c1nnc2ccc(-c3c(-c4ccc(F)cn4)nc4n3C3CCC4C3)cn12 (single isomer, unassigned) [The compound with retention time of 6.631 minutes among 9-1 ] | 69 nM | Apparent distribution volume Vz/F [2]: 7.675 ± 1.629 L/kg; Area under curve AUC [2]: 914 ± 410 ng·h/mL; Clearance CLz/F [2]: 43.1 ± 19.8 mL/min/kg; Half-life T1/2 [2]: 2.39 ± 1.04 h; Plasma concentration Cmax [2]: 386 ± 148 ng/mL; Residence time MRT [2]: 2.60 ± 0.60 h |
| 4 nM | Cc1cccc(-c2nc3n(c2-c2ccc4nccnc4c2)C2CCC3C2)n1 (single isomer, unassigned) [The compound with retention time of 3.747 minutes among 6-1 ] | 40 nM | – |
| 3 nM | Cc1cccc(-c2nc3n(c2-c2ccc4nccnc4c2)C2CCC3C2)n1 (single isomer, unassigned) [The compound with retention time of 5.327 minutes among 6-1 ] | 18 nM | – |
| 13 nM | Cc1cccc(-c2nc3n(c2-c2ccnc(-c4cnn(C)c4)c2)C2CCC3C2)n1 (single isomer, unassigned) [The compound with retention time of 4.695 minutes among 12-1] | – | IC50 (NIH3T3 cell; listed as The compound with retention time is 4.695 minutes among 12-1 and 12-2): 41 nM |
| 94 nM | NC(=O)c1nnc2ccc(-c3c(-c4ccc(F)cn4)nc4n3C3CCC4C3)cn12 (single isomer, unassigned) [The compound with retention time of 13.001 minutes among 9-1] | – | – |
| 71 nM | Cc1cccc(-c2nc3n(c2-c2ccnc(-c4ccc(C(=O)NC5CCOCC5)cc4)c2)C2CCC3C2)n1 (single isomer, unassigned) [The compound with retention time of 5.418 minutes among 17-1] | – | – |
| 60 nM | Cc1cccc(-c2nc3n(c2-c2ccnc(-c4ccc(C(N)=O)cc4)c2)C2CCC3C2)n1 (single isomer, unassigned) [The compound with retention time of 7.204 minutes among 4-1 ] | – | – |

Read-outs that look alike come from different tables or passages of the source.
